Earlier results on 1 compound are cited in patent publication US12311056B2, “Composition and method for treatment of neuropsychiatric disorders” (Duke University, priority 2015, dated 2025).

For this data set the following is noted: in vivo; cited from earlier work.

Consider `CN1CCN2c3ncccc3Cc3ccccc3[C@H]2C1` [esmirtazapine], for which the “Brain accumulation in comparison with the R(−) enantiomer” value was “may accumulated more in the brain”.
